Consider 1 molecule from patent US20200032163A1, “Method for the Virus Inactivation of a Preparation of Monoclonal Antibodies” (Laboratoire Francais du Fractionnement et des …, priority 2016, published 2020).

Each structure is given as a SMILES string.

The nature of the data set: Adsorption of polysorbate 80 and TnBP by the multilayer film of the 75 mL flexible bag (HPLC).
The mark [1] stands for this setting: Bag according to the invention, 30 min, 25±3° C.
Setting [2] is: Bag according to the invention, 1 hour, 25±3° C.
Setting [3] is: Bag according to the invention, 2 hours, 25±3° C.

On to `CCCCOP(=O)(OCCCC)OCCCC`, for which the “adsorption by the bag” value (75 mL flexible bag, 2 hours, 25±3° C.) is listed as “no significant adsorption”. Besides, the “TnBP Concentration” value reads like this: (Bag according to the invention, 0 min, 25±3° C.) 3308 mg/L; under setting [1], 3425 mg/L; under setting [2], 3493 mg/L; under setting [3], 3333 mg/L; (Glass flask (negative control), 30 min) 3042 mg/L. The “TnBP Adsorption with respect to T0” value by setting is: under setting [1], −3.5%; under setting [2], 5.6%; under setting [3], 0.8%.
